This note sets out measurements from PMC6627609 (2019).

Sequences of proteins named here, by UniProt entry; tags and fusion partners are left off. A change or cut given only in a name is not applied to a line headed by its entry.
UniProt Q8ZKQ6: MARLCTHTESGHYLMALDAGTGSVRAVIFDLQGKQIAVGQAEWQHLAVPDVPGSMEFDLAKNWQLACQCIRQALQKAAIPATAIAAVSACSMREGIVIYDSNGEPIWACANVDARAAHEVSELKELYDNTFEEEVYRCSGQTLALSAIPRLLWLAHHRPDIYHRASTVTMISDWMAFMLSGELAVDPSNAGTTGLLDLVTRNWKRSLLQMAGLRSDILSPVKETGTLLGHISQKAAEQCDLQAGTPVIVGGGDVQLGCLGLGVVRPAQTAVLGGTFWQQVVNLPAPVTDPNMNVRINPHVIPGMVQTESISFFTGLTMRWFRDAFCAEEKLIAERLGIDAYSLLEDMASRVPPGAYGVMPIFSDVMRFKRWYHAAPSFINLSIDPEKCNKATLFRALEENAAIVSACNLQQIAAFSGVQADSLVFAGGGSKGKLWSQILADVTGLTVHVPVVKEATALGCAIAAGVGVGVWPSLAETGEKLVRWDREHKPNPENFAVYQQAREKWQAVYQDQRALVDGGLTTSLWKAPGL

The assay addresses LsrK (Salmonella typhimurium, UniProt Q8ZKQ6). The following applies: 50 µM.

As for `CC1=C(/C=C/C(C)=C/C=C/C(C)=C/C(=O)O)C(C)(C)CCC1` [TRETINON], the “Inhibition (%)” value worked out at 2.
